The text below walks through data of PubChem BioAssay AID488839 (Broad Institute, 2010).

The chains behind the UniProt entries cited, without tags or fusion partners. Where a name states a change or a piece, a line headed by the entry shows the natural chain unless it says otherwise.
UniProt Q00535, whole entry, looked up: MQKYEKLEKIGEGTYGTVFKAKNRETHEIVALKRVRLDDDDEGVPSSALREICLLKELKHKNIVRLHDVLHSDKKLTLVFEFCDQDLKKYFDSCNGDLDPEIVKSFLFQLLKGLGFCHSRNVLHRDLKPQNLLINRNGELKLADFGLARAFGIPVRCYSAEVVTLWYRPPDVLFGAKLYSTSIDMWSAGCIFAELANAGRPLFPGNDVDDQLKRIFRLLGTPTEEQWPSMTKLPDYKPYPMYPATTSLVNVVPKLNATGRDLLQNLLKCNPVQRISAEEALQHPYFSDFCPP
UniProt Q15078: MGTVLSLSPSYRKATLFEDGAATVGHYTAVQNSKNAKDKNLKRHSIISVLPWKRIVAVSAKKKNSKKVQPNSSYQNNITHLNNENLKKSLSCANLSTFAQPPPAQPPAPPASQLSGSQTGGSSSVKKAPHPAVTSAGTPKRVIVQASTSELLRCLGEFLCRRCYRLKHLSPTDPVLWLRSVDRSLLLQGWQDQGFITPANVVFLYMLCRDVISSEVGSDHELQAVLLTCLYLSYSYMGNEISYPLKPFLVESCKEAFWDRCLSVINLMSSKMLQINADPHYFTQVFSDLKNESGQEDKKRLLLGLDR

This is one part of the list. The source made the active and inactive calls.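 The calls were made as follows: active = highest replicate inhibition of at least 50% and at least 75% of replicates reaching 50%; inconclusive = only one of the two criteria met; inactive = both criteria failed.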

In this assay the target is Cyclin-dependent kinase 5 (Homo sapiens) + Cyclin-dependent kinase 5 activator 1 (Homo sapiens) (UniProt Q00535+Q15078). In words: inhibitors of human CDK5/p35 kinase, primary screen, biochemical, single concentration (AID 488839).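 Also: plate controls were DMSO neutral control for no effect and GW8510 at 10 µM for full effect.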 To be noted: Recombinant CDK5/p35, ADP-Glo luminescence, 60 min; at 10 µM; active compounds read high.
In the case of `O=[N+]([O-])c1cc([N+](=O)[O-])c(-c2ccn[nH]2)s1`, the inhibition was inactive: -2.06%.
`CC(C)NC(=O)NP(=O)(Oc1ccccc1)Oc1ccccc1`: the inhibition was inactive: -0.966%.
Consider `CCN(CC)C(=S)SC(NC=O)C(Cl)(Cl)Cl` (stereo not drawn), for which the inhibition was inactive: 0.245%.
Turning to `O=C(OC1CN2CCC1CC2)c1cccc2[nH]cnc12` (stereo not drawn), the inhibition is inactive: 1.03%.
Next, `ClCCSc1nnc(-c2cccnc2)o1`: inactive: -1.09%; `COC(=O)C1(C)COP(=O)(N2CCCCCC2)OC1` (stereo not drawn): inactive: 0.27%; `CC(C)c1ccc(OP(=O)(Nc2ccccn2)Oc2ccccc2F)cc1` (stereo not drawn): inactive: -0.32%.
`Cc1ccc(OP(=O)(Nc2ccc([N+](=O)[O-])cn2)Oc2ccc(C)cc2)cc1`: the inhibition was inactive: 0.576%.
Under `Cc1ccc2nc3c(c(C)c2c1)CC(C(Cl)Cl)S3` (stereo not drawn) stands inactive: -3.28%; under `O=[N+]([O-])c1ccc(-c2cc([N+](=O)[O-])c(O)c([N+](=O)[O-])c2)cc1`, inactive: 0.708%.
For `COc1cc(C(=O)NCC2(N3CCOCC3)CCCCC2)ccc1OCC(C)C`, the inhibition is inactive: 0.394%.
As for `O=[As](O)(c1ccc(O)cc1)c1ccccc1O`, the inhibition was inactive: 2.86%.
Next, `C[As](=O)(O)c1cccc(C(=O)O)c1`: inactive: -0.663%; `O=[N+]([O-])c1cc(Oc2ccc([N+](=O)[O-])cc2C(F)(F)F)cc([N+](=O)[O-])c1`: inactive: 0.577%.
Next, `COc1ccc(N/C(=N/P(=O)(N2CCOCC2)N2CCOCC2)N2CCOCC2)cc1`: inactive: -0.264%; `O=P1(N(CCCl)CCCl)OCCCN1CCCl` (stereo not drawn): inactive: 1.51%; `O=P1(N(CCCl)CCCl)Nc2ccccc2N1`: inactive: 0.657%.
Next, `COc1cc(I)ccc1[As](=O)(O)O`: inactive: 0.83%.
For `COc1ccc2nc(NP(=O)(c3ccccc3)c3ccccc3)sc2c1`, the inhibition was inactive: -0.226%.
`Cc1c2c(nc3ccccc13)SC(C(Cl)Cl)C2` (stereo not drawn): the inhibition is inactive: 1.55%.
Under `Cc1cc(=O)[nH]c(N[N+](=O)[O-])n1` stands inactive: -0.219%; under `O=C(OC1CN2CCC1CC2)C12CC3CC(CC(C3)C1)C2` (stereo not drawn), inactive: 1.06%.
`CCC(C)N(CC(C)C)C(=S)SC(NC(C)=O)C(Cl)(Cl)Cl` (stereo not drawn): the inhibition was inactive: 0.175%.
For the compound `O=C(OC1CN2CCC1CC2)c1cccc([N+](=O)[O-])c1` (stereo not drawn), the inhibition is inactive: -0.814%.
As to `CCOC(=O)c1ccc(NC(=O)C(C)(CCl)SC)cc1` (stereo not drawn), the inhibition is inactive: -3.49%.
Consider `O=C(Nc1ccncc1[N+](=O)[O-])c1ccc([N+](=O)[O-])cc1[N+](=O)[O-]`, for which the inhibition was inactive: 1.31%.
As to `O=C(COc1ccccc1)OC1CN2CCC1CC2` (stereo not drawn), the inhibition was inactive: 0.0117%.
Take `COP1(=S)c2c(C)nn(CCC#N)c2N=C(c2ccc(F)cc2)N1C` (stereo not drawn): the inhibition is inactive: 0.19%.
As for `O=P(Nc1ccccn1)(c1cccc2ccccc12)c1cccc2ccccc12`, the inhibition is inactive: 1.03%.
Under `Cc1cc(SC(NC=O)C(Cl)(Cl)Cl)ncn1` (stereo not drawn) stands inactive: 0.117%; under `O=[N+]([O-])c1ccc(Nc2ccc(Oc3ccc([N+](=O)[O-])cc3[N+](=O)[O-])cc2)c([N+](=O)[O-])c1`, inactive: 0.4%.
Consider `CCOC(=O)Nc1cccc([As](=O)(O)O)c1`, for which the inhibition was inactive: 3.19%.
Turning to `Cc1cc(SC(NC(=O)c2ccccc2)C(Cl)(Cl)Cl)nc(C(C)C)n1` (stereo not drawn), the inhibition is inactive: 0.729%.
On to `CCCCOc1ccc(C(=O)NCC2(N3CCCCC3)CCCCC2)cc1OC`, for which the inhibition was inactive: -2.36%.
Regarding `CCOC(=O)Nc1ccc([As](=O)(O)O)c(O)c1`, the inhibition is inactive: -0.842%.
Under `CC1CCNP(=O)(N(CCCl)CCCl)O1` (stereo not drawn) stands inactive: -0.0847%; under `Nc1cccc([As](=O)(O)c2ccccc2)c1`, inactive: -0.218%; under `Cc1ccc(OCC(=O)OC2CN3CCC2CC3)cc1` (stereo not drawn), inactive: 0.112%.
For the compound `O=[As](O)(c1cccs1)c1cccs1`, the inhibition is inactive: 0.172%.
For the compound `O=P1(Nc2ccc(Br)cn2)COc2ccccc2OC1`, the inhibition is inactive: -1.18%.
As to `NS(=O)(=O)c1cccc(NC(=O)COC(=O)C(O)(c2ccccc2)c2ccccc2)c1`, the inhibition is inactive: 0.161%.
Turning to `O=P1(Nc2ncccn2)COc2ccccc2OC1`, the inhibition was inactive: 1.52%.
Consider `CN(C)C1(CNC(=O)c2ccc(S(C)(=O)=O)cc2)CCCCC1`, for which the inhibition was inactive: 0.612%.
Regarding `CCCC1OP(=O)(Nc2ccccc2)OCC1CC` (stereo not drawn), the inhibition is inactive: 1.32%.
Take `O=C(/C=C/c1ccccc1)OC1CN2CCC1CC2` (stereo not drawn): the inhibition is inactive: -0.849%.
As to `CC1CCC(C(C)C)C(OP(=O)(Nc2ccccn2)c2ccccc2)C1` (stereo not drawn), the inhibition was inactive: 1.1%.
For the compound `Cc1ccc(C(=O)OC2CN3CCC2CC3)cc1` (stereo not drawn), the inhibition is inactive: 0.842%.
Regarding `Cc1nn(-c2ccccc2)c2c1P(=O)(N1CCOCC1)N(C)C(c1ccccc1)=N2` (stereo not drawn), the inhibition was inactive: 0.11%.
With `CC(C)/C=N\N=C(\N)N[N+](=O)[O-]`, the inhibition is inactive: -6.93%.
For the compound `CN(C(=O)Cc1ccc(Cl)c(Cl)c1)[C@@H]1CCCC[C@H]1N1CCCC1`, the inhibition was inactive: -1.52%.
Under `CC1(CBr)Cn2c(nc3ccccc3c2=O)S1` (stereo not drawn) stands inactive: 0.132%.
For `COc1ccccc1CNC(=O)COC(=O)C(O)(c1ccccc1)c1ccccc1`, the inhibition was inactive: 0.0123%.
For `CC(C)(C)C(=O)NC(Sc1ncccn1)C(Cl)(Cl)Cl` (stereo not drawn), the inhibition is inactive: 1.9%.
Next, `Clc1n[nH]nc1-c1nn[nH][15n]1`: inactive: -1.12%; `CCOP(=O)(NC(=NC(C)c1ccccc1)NC(C)c1ccccc1)OCC` (stereo not drawn): inactive: 0.257%; `O=P1(Nc2ccccn2)COc2ccccc2OC1`: inactive: -0.954%.
Next, `CCC1=CC2Cc3nc4ccc(Cl)cc4c(N)c3C(C1)C2` (stereo not drawn): inactive: 2.47%.
Next, `CCOP(=O)(Nc1ccc(C)cn1)OCC`: inactive: 0.381%.
Consider `CCOP(=O)(Nc1cccc2ccccc12)OCC`, for which the inhibition was inactive: -0.401%.
Next, `COc1cc(C2NCCC3(OCCO3)C2(C)C)cc(OC)c1OC` (stereo not drawn): inactive: -6.26%; `Cc1ccc(NCCc2c([N+](=O)[O-])cc([N+](=O)[O-])cc2[N+](=O)[O-])cc1`: inactive: -4.81%.
Next, `Nc1cccc2c([As](=O)(O)O)cccc12`: inactive: -0.269%.
For `CCCOP(=S)(Nc1nc(N)cc(=O)[nH]1)OCCC`, the inhibition is inactive: -2.32%.
As for `Cc1cccc(OCC(=O)OC2CN3CCC2CC3)c1` (stereo not drawn), the inhibition is inactive: 2.56%.
`O=[As](O)(c1cccc(O)c1)c1cccc(O)c1`: the inhibition was inactive: -0.335%.
Under `O=C(OC1CN2CCC1CC2)c1ccc(Cl)cc1` (stereo not drawn) stands inactive: 0.565%; under `CS(=O)(=O)c1ccc(Cl)c(NC(=O)COC(=O)C(O)(c2ccccc2)c2ccccc2)c1`, inactive: -2.21%; under `O=[As](O)(O)c1cccnc1`, inactive: 0.263%.
Turning to `COc1cc(C(=O)NCC2(N3CCOCC3)CCCCC2)cc(Cl)c1OC(C)C`, the inhibition is inactive: -0.685%.
For the compound `CCOP1(=S)c2c(C)nn(CCC#N)c2N=C(c2ccc(F)cc2)N1C` (stereo not drawn), the inhibition is inactive: 3.53%.
Under `CN(C(=O)Cc1ccccc1)[C@@H]1CC[C@]2(CCCO2)C[C@H]1N1CCCC1` stands inactive: -0.548%; under `N#CCCN(C(=O)COC(=O)C(O)(c1ccccc1)c1ccccc1)c1ccc(F)cc1`, inactive: -1.94%.
On to `CN(C(=O)Cc1ccc(Cl)c(Cl)c1)[C@H]1CC[C@@]2(CCCO2)C[C@@H]1N1CCCC1`, for which the inhibition is inactive: -0.648%.
Next, `O=[N+]([O-])c1ccc2c(c1)nnn2O`: inactive: 3.05%.
For `CN(C)C(=O)c1cc([N+](=O)[O-])cc2c1-c1c(cc([N+](=O)[O-])cc1[N+](=O)[O-])C2=O`, the inhibition was inactive: -3.96%.
For `NC(=O)Nc1ccc([As](=O)(O)O)cc1`, the inhibition is inactive: -0.169%.
As to `Nc1ccccc1[As](=O)(O)c1ccccc1`, the inhibition is inactive: 0.328%.
In the case of `O=C(O)COc1ccc([As](=O)(O)O)cc1[N+](=O)[O-]`, the inhibition was inactive: 1.24%.
On to `O=P(Nc1nccs1)(Oc1ccccc1)Oc1ccccc1`, for which the inhibition was inactive: 0.956%.
Take `O=P(Nc1nccs1)(c1ccccc1)c1nc2ccccc2s1` (stereo not drawn): the inhibition was inactive: -0.0861%.
Next, `CCOP1(=S)c2c(C)nn(CCC#N)c2N=C(c2ccccc2F)N1C` (stereo not drawn): inactive: -0.831%.
Under `CS(=O)(=O)c1cc([N+](=O)[O-])c2no[n+]([O-])c2c1` stands inactive: 0.186%.
Take `O=c1c2cc([N+](=O)[O-])ccc2[nH]c2c([N+](=O)[O-])cc([N+](=O)[O-])cc12`: the inhibition is inactive: 0.451%.
For the compound `CN(C)C(=O)Oc1noc2ccccc12`, the inhibition was inactive: 0.393%.
With `CC(NC(=O)COC(=O)C(O)(c1ccccc1)c1ccccc1)c1ccccc1` (stereo not drawn), the inhibition is inactive: 0.427%.
Under `Cc1ccccc1OP(=O)(Nc1ccccn1)Oc1ccccc1C` stands inactive: -2.07%; under `CCC(=O)N1C2C3N(C(=O)CC)C1C1N(C(=O)CC)C(C(N1C(=O)CC)N3C(=O)CC)N2C(=O)CC`, inactive: 0.941%.
As for `O=C(OC1CN2CCC1CC2)c1ccccc1` (stereo not drawn), the inhibition is inactive: -0.126%.
Under `CC(=O)NC(SC(=S)N(CC(C)C)CC(C)C)C(Cl)(Cl)Cl` (stereo not drawn) stands inactive: -1.3%; under `COC(=O)c1cc2c(s1)N=C(c1ccccc1)N(C)P2(=O)N1CCOCC1` (stereo not drawn), inactive: 0.102%; under `O=P1(N(CCCl)CCCl)OCCC2CCCCN21` (stereo not drawn), inactive: -5.91%.
On to `Cc1ccc(NP(=O)(Oc2cccc(C)c2)Oc2cccc(C)c2)nc1`, for which the inhibition is inactive: 0.993%.
Next, `c1ccc(-c2nn[nH]n2)c(-c2nn[nH]n2)c1`: inactive: -1.49%; `CCNC(=S)/N=C(\N)N[N+](=O)[O-]`: inactive: 1.79%; `O=C(NC1CCS(=O)(=O)C1)NP(=S)(Oc1ccccc1)Oc1ccccc1` (stereo not drawn): inactive: 2.43%.
As to `CC(=O)Nc1ccc(Oc2c([N+](=O)[O-])cc([N+](=O)[O-])cc2[N+](=O)[O-])cc1`, the inhibition is inactive: -4.62%.
Take `CC(=O)Nc1ccc([As](=O)(O)O)c(O)c1`: the inhibition is inactive: 0.487%.
Take `C[C@H]1OP(=O)(Oc2ccccc2)C[C@@H]2O[C@@H]21` (stereo partly drawn): the inhibition was inactive: 2.77%.

A word on the inhibition: it is the relative decrease from the control value, in per cent.
